Measured values from US12697321B2 (dated 2026).

Test system: CCI rats (chronic constriction of the sciatic nerve of Wistar rats)

## C/C(=C\C1C/C(=C/CCc2ccoc2)C(=O)O1)CCCc1ccoc1 (centres unmarked) [nitenin]
intraperitoneally
  efficacy, intraperitoneal administration: successful
Via oral administration
  efficacy, oral administration: successful
